Results as given in patent US20210145989A1, “COMPOSITIONS AND RELATED METHODS FOR BLOCKING OFF-TARGET LOCALIZATION OF MANNOSYLATED DEXTRANS AND OTHER CD206 LIGANDS” (Navidea Biopharmaceuticals, Inc., priority 2019, published 2021).

Test system: CD206
Conditions: male Sprague Dawley rat, IV

## dextran 3-[(2-aminoethyl)thio]propyl 17-carboxy-10,13,16-tris(carboxymethyl)-8-oxo-4-thia-7,10,13,16-tetraazaheptadec-1-yl 3-[[2-[[1-imino-2-(D-mannopyranosylthio)ethyl]amino]ethyl]thio]propyl ether complexes [99mTc-tilmanocept]
By one hour after injection
  excretion of injected radioactivity into the urine: large portion of the injected radioactivity was excreted into the urine
One hour after injection
  localization of radioactivity to the spleen: significant (but lesser) localization
